From US20060241082A1, “Modulating vesicular monoamine transporter trafficking and function: a novel approach for the treatment of parkinson's disease” (priority 2002, published 2006)

By UniProt entry, the sequences of proteins in these tests, tags left out.
UniProt Q01827, whole entry: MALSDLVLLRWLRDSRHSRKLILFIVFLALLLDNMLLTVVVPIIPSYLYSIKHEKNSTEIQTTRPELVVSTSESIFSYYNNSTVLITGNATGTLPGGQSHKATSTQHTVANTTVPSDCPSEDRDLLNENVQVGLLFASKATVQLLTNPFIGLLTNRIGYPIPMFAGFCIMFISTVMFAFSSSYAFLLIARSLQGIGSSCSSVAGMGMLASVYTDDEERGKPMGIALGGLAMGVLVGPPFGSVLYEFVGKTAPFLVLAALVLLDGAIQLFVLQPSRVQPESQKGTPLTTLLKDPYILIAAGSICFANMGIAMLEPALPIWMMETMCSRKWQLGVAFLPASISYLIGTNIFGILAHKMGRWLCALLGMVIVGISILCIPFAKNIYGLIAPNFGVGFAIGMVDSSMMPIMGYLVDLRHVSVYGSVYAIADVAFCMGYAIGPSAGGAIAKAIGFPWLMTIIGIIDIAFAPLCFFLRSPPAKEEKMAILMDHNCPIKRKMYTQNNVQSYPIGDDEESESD

What was measured:
VMAT-2 [1] = molecular target: T1, VMAT-2 (Rattus norvegicus, UniProt Q01827); parameters: purified striatal vesicles prepared from treated rats; from tissue; host or cells: striatum of male Sprague-Dawley rats (synaptic vesicles; P2, P3, S3 fractions); details: rats; Brown et al., 2001a,b; cited from earlier work
VMAT-2 [2] = molecular target: T1, VMAT-2; parameters: purified striatal vesicles prepared from treated rats; from tissue; host or cells: striatum of male Sprague-Dawley rats (synaptic vesicles; P2, P3, S3 fractions); details: in vivo
Protocol: Osmolarity was restored by addition of N-(2-hydroxyethyl)-piperazine-N′-2-ethanesulfonic acid (HEPES) and potassium tartrate 25 mM and 100 mM (final concentrations; pH 7.5 at 4° C.), respectively.

CCCN1CCC[C@@H]2Cc3n[nH]cc3C[C@H]21 [quinpirole]
vesicular [3H]DA uptake after administration alone (VMAT-2 [1]): increases
vesicular [3H]DA uptake when rats were concurrently treated with METH (VMAT-2 [2]): neither treatment increased
